This is an account of results in US11129835B2, “Methods and compositions for the inhibition of PIN1” (Beth Israel Deaconess Medical Center, Inc., priority 2012, dated 2021).

Sequences of proteins named here, by UniProt entry; tags and fusion partners are left off.
UniProt Q13526, whole entry: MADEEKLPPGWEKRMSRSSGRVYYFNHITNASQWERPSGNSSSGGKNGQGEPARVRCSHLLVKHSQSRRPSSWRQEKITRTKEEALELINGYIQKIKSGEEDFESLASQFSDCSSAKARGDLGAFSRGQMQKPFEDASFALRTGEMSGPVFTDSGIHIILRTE

Experiment [1] concerns the target T1, Pin1 (Homo sapiens, UniProt Q13526). Description: confirmatory Pin1 fluorescence polarization competition assay (Alexa488 reconfirmed).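 Note: Pin1 competition with a HiFluor488-labelled peptide probe, read as fluorescence polarization after 10 min at room temperature.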
For experiment [2], the target named is T1, Pin1. Description: Pin1 fluorescence polarization competition assay, primary qHTS (HiFluor-488 / Alexa488 probe).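 Note: Pin1 protein with fluorescent peptide probe, compound displacement read by fluorescence polarization, percent inhibition derived from corrected polarization values, concentration-response curves in 1536-well format.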
The target of experiment [3] is T1, Pin1. The experiment is described as follows: Pin1 fluorescence polarization competition assay with Tamra-probe (secondary).

On to `O=C(O)c1cccc2c1NC(C(=O)O)C1CC(Sc3ccccc3[N+](=O)[O-])C(Cl)C21` (stereo not shown) [Compound 3], for which the IC50 at Pin1 [1] stood at 3 µM; on Pin1 [2] (Alexa488 Primary Potency, primary qHTS), 10 µM; at Pin1 [2] (Average HTS Potency, average over Alexa488 primary, Alexa488 reconfirmed and Tamra secondary assays), 6 µM; at Pin1 [3], 5 µM.

The term IC50 denotes the concentration at which inhibition is half-maximal. Higher therefore signals a need for much substance.
